## AlphaSeq binding of Ab-14 light chain variants to a spike HR2 peptide

Source: Engelhart et al. 2022 (doi:10.1038/s41597-022-01779-4), MIT Lincoln Laboratory and A-Alpha Bio; data file from the FLAb repository.

The target is the same throughout: PDVDLGDISGINAS, from the HR2 region of SARS-CoV-2 spike.

The variants keep the heavy chain, the linker and the frameworks of Ab-14 (scFv order VH, the linker GGGGSGGGGSGGGGS, VL).
VH: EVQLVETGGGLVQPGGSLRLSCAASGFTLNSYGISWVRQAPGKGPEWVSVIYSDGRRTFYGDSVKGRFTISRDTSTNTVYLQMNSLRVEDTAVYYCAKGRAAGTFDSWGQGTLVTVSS
VL: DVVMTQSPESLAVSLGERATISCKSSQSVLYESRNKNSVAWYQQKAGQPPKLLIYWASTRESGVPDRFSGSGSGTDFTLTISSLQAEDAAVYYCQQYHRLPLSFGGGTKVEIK

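The parent was found by panning a naive human phage display library on the peptide. AAYL50 was designed without a model: most single CDR substitutions and a random sample of double and triple ones. Affinity was read by AlphaSeq, a pooled yeast mating assay with surface-displayed partners. Pairs that bind mate more often; barcode pairs of the diploids are counted by sequencing. Scores were corrected for input abundance and mapped to Kd with protein pairs of known affinity run in the same pool. Mating was done three times.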

Positions count from residue 1 of the parent VL; N35V puts V in place of N.
All variants listed here change Q96 of the VL, counted from its first residue.
Each Kd is an estimate from the mating assay, the geometric mean of the replicates in which the pair was seen; lower is stronger.
"nd" marks a missing value. The strain was present, yet no cells mated with the target were sequenced in any replicate, which points to weak or no binding.
For reference, the parent read 4.4 nM as the reference entry and 48 nM as a member of this library.
Background: pairings of library AAYL50 with three empty control strains gave a value in 18% of cases (median 15 µM, 5th percentile 970 nM). Values in that range, when seen in few replicates, are hard to tell from nonspecific mating.

The variant N35V+S62P+Q96Y showed 400 nM (3 of 3 replicates). The variant E61R+Q96T+Y97P gave nd (0 of 3 replicates). The variant E32V+K36L+Q96V gave nd (0 of 3 replicates). The variant Q96M+Y97G+R99H gave nd (0 of 3 replicates). With L30C+Q96R+S103Q the result was 360 µM (2 of 3 replicates). With Q96C+H98T the result was nd (0 of 3 replicates). With W56K+Q96M the result was 9.9 nM (3 of 3 replicates). The variant V29E+T59S+Q96A showed 770 nM (3 of 3 replicates).

For S26Y+R34W+Q96C, the assay gave nd (0 of 3 replicates). The variant L30A+S33F+Q96G showed 35 µM (2 of 3 replicates). For R60D+Q96V, the assay gave 12 µM (2 of 3 replicates). For V29W+Q95T+Q96K, the assay gave 2.9 nM (3 of 3 replicates). For Q96C+Y97K, the assay gave nd (0 of 3 replicates). With Y31M+Q96A+H98C the result was 6.7 nM (3 of 3 replicates). For K36R+S38L+Q96S, the assay gave nd (0 of 3 replicates). The variant S25M+Q96M+L100H showed 1.5 nM (3 of 3 replicates).

The variant N35Y+Q96V gave 9.4 µM (1 of 3 replicates). The variant K36D+T59F+Q96M gave 3.4 µM (3 of 3 replicates). With V39A+Q96D the result was 1.4 µM (1 of 3 replicates). The variant S38E+Q96D gave 360 nM (3 of 3 replicates). For V29S+V39C+Q96V, the assay gave 3.9 µM (1 of 3 replicates). The variant K24R+Q96V+R99A gave 15 nM (3 of 3 replicates). The variant N37F+S38R+Q96M showed 2.5 µM (2 of 3 replicates). The variant K24M+A40D+Q96E showed nd (0 of 3 replicates).

The variant W56Q+Q96H+R99M gave 2.5 nM (3 of 3 replicates). The variant L30K+Q95Y+Q96E showed 590 nM (1 of 3 replicates). The variant Q96A+Y97V gave nd (0 of 3 replicates). The variant S25E+V29A+Q96V showed 1.9 µM (3 of 3 replicates). The variant L30M+R34M+Q96C gave 46 µM (1 of 3 replicates). The variant Y31N+T59W+Q96F gave 86 nM (3 of 3 replicates). The variant S62D+Q96M+H98L gave 24 nM (3 of 3 replicates). For V39I+Q96S+L100R, the assay gave 260 µM (2 of 3 replicates).

The variant K24M+Q27D+Q96V gave 11 µM (2 of 3 replicates). The variant Q96N+P101F gave 35 µM (1 of 3 replicates). The variant Y31W+S33Q+Q96P showed nd (0 of 3 replicates). The variant Q27T+Q96P+L100H gave 19 µM (2 of 3 replicates). The variant A40L+Q95I+Q96V gave nd (0 of 3 replicates). With Q96C+L100S the result was 390 µM (1 of 3 replicates). The variant V29Q+Q96E+L100T showed 95 nM (3 of 3 replicates). The variant V39D+Q96V+P101F gave 8.9 µM (2 of 3 replicates).

With K36F+S38F+Q96R the result was 850 nM (1 of 3 replicates).

Excerpt, the first 3 entries:

changes,apparent Kd,seen in
N35V+S62P+Q96Y,400 nM,3 of 3
E61R+Q96T+Y97P,nd,0 of 3
E32V+K36L+Q96V,nd,0 of 3